Experimental data from patent publication US20210062146A1, “OPTIMIZED IN VITRO CELLULAR SYSTEM FOR BBB PERMEABILITY LINKED NEUROACTIVITY SCREENING” (priority 2019, published 2021).

Test system: SH-SY5Y neurons
Assay: BBB permeability linked neuroactivity (Neurite Outgrowth Staining Kit)
Details: 50 μM initial apical concentration, 3 hour permeation, n=4

Question: How did the “neurite outgrowth, percent of control NVU SH-SY5Y cells with vehicle” value turn out when `NC(=O)N1c2ccccc2C=Cc2ccccc21` [carbamazepine] was run?
Answer: Its value is 96±9%.
